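Following 48 hours of exposure in 96-well plates, responses at five concentrations were used to interpolate endpoints linearly. GI50 = concentration required for 50% inhibition of growth. TGI denotes the concentration required for complete inhibition of growth.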
Tests used:
Test in all cases: NCI anticancer screen, dose series, 48 h
UACC-257 melanoma = system: UACC-257 melanoma
NCI-H23 lung = system: NCI-H23 lung
ACHN renal = system: ACHN renal
NCI-H460 lung = system: NCI-H460 lung
SK-MEL-28 melanoma = system: SK-MEL-28 melanoma
786-0 renal = system: 786-0 renal
MCF7 breast = system: MCF7 breast
OVCAR-3 ovarian = system: OVCAR-3 ovarian
TK-10 renal = system: TK-10 renal
OVCAR-8 ovarian = system: OVCAR-8 ovarian
SNB-75 CNS = system: SNB-75 CNS
NCI-H322M lung = system: NCI-H322M lung
U251 CNS = system: U251 CNS
SK-OV-3 ovarian = system: SK-OV-3 ovarian
HT29 colon = system: HT29 colon
K-562 leukemia = system: K-562 leukemia
RXF 393 renal = system: RXF 393 renal
UO-31 renal = system: UO-31 renal
SF-539 CNS = system: SF-539 CNS
HOP-92 NSCLC = system: HOP-92 NSCLC
HOP-62 NSCLC = system: HOP-62 NSCLC
MDA-MB-231 breast = system: MDA-MB-231 breast
SW-620 colon = system: SW-620 colon
SK-MEL-5 melanoma = system: SK-MEL-5 melanoma
M14 melanoma = system: M14 melanoma
HCT-116 colon = system: HCT-116 colon
HS 578T breast = system: HS 578T breast
HL-60(TB) leukemia = system: HL-60(TB) leukemia
KM12 colon = system: KM12 colon
NCI-H226 lung = system: NCI-H226 lung
SF-295 CNS = system: SF-295 CNS
NCI/ADR-RES ovarian = system: NCI/ADR-RES ovarian
IGROV1 ovarian = system: IGROV1 ovarian
NCI-H522 lung = system: NCI-H522 lung
UACC-62 melanoma = system: UACC-62 melanoma
OVCAR-4 ovarian = system: OVCAR-4 ovarian
SF-268 CNS = system: SF-268 CNS
MDA-MB-435 = system: MDA-MB-435
DU-145 prostate = system: DU-145 prostate
OVCAR-5 ovarian = system: OVCAR-5 ovarian
MALME-3M melanoma = system: MALME-3M melanoma
RPMI-8226 leukemia = system: RPMI-8226 leukemia
SNB-19 CNS = system: SNB-19 CNS
CAKI-1 renal = system: CAKI-1 renal
SK-MEL-2 melanoma = system: SK-MEL-2 melanoma
A498 renal = system: A498 renal
SN12C renal = system: SN12C renal
COLO 205 colon = system: COLO 205 colon
T-47D breast = system: T-47D breast
A549 NSCLC = system: A549 NSCLC
MOLT-4 leukemia = system: MOLT-4 leukemia
PC-3 prostate = system: PC-3 prostate
SR leukemia = system: SR leukemia
HCT-15 colon = system: HCT-15 colon

O=[N+]([O-])C1(Br)CCC(Br)([N+](=O)[O-])CC1 (stereo not drawn)
GI50 (UACC-257 melanoma): 10.8 µM | TGI (UACC-257 melanoma): 23.1 µM | GI50 (NCI-H23 lung): 16.6 µM | TGI (NCI-H23 lung): 32 µM | GI50 (ACHN renal): 10.5 µM | TGI (ACHN renal): 22.4 µM | GI50 (NCI-H460 lung): 34.2 µM | TGI (NCI-H460 lung): > 100 µM | GI50 (SK-MEL-28 melanoma): 15.4 µM | TGI (SK-MEL-28 melanoma): 30.7 µM | GI50 (786-0 renal): 3.83 µM | TGI (786-0 renal): 14.3 µM | GI50 (MCF7 breast): 29.8 µM | TGI (MCF7 breast): > 100 µM | GI50 (OVCAR-3 ovarian): 15.3 µM | TGI (OVCAR-3 ovarian): 31.6 µM | GI50 (TK-10 renal): 11.5 µM | TGI (TK-10 renal): 24.4 µM | GI50 (OVCAR-8 ovarian): 16.5 µM | TGI (OVCAR-8 ovarian): 31.6 µM | GI50 (SNB-75 CNS): 18.4 µM | TGI (SNB-75 CNS): 33.7 µM | GI50 (NCI-H322M lung): 15.3 µM | TGI (NCI-H322M lung): 30.3 µM | GI50 (U251 CNS): 16.3 µM | TGI (U251 CNS): 30.1 µM | GI50 (SK-OV-3 ovarian): 27.1 µM | TGI (SK-OV-3 ovarian): 82 µM | GI50 (HT29 colon): 11.6 µM | TGI (HT29 colon): 25.6 µM | GI50 (K-562 leukemia): 13.2 µM | TGI (K-562 leukemia): 33 µM | GI50 (RXF 393 renal): 6.34 µM | TGI (RXF 393 renal): 71.9 µM | GI50 (UO-31 renal): 12 µM | TGI (UO-31 renal): 25.4 µM | GI50 (SF-539 CNS): 6.78 µM | TGI (SF-539 CNS): 19.8 µM | GI50 (HOP-92 NSCLC): 12 µM | TGI (HOP-92 NSCLC): 25 µM | GI50 (HOP-62 NSCLC): 15.9 µM | TGI (HOP-62 NSCLC): 31.8 µM | GI50 (MDA-MB-231 breast): 13.6 µM | TGI (MDA-MB-231 breast): 26.6 µM | GI50 (SW-620 colon): 3.54 µM | TGI (SW-620 colon): 23.7 µM | GI50 (SK-MEL-5 melanoma): 14.6 µM | TGI (SK-MEL-5 melanoma): 31.4 µM | GI50 (M14 melanoma): 14.1 µM | TGI (M14 melanoma): 30.7 µM | GI50 (HCT-116 colon): 3.48 µM | TGI (HCT-116 colon): 11.4 µM | GI50 (HS 578T breast): 24.5 µM | TGI (HS 578T breast): 65.3 µM | GI50 (HL-60(TB) leukemia): 5.44 µM | TGI (HL-60(TB) leukemia): 25 µM | GI50 (KM12 colon): 20.3 µM | TGI (KM12 colon): 36.8 µM | GI50 (NCI-H226 lung): 11.8 µM | TGI (NCI-H226 lung): 24.9 µM | GI50 (SF-295 CNS): 18.4 µM | TGI (SF-295 CNS): 36.1 µM | GI50 (NCI/ADR-RES ovarian): 15.5 µM | TGI (NCI/ADR-RES ovarian): 30.1 µM | GI50 (IGROV1 ovarian): 18 µM | TGI (IGROV1 ovarian): 33.6 µM | GI50 (NCI-H522 lung): 5.42 µM | TGI (NCI-H522 lung): 22.8 µM | GI50 (UACC-62 melanoma): 15.5 µM | TGI (UACC-62 melanoma): 28.9 µM | GI50 (OVCAR-4 ovarian): 9.82 µM | TGI (OVCAR-4 ovarian): 22.5 µM | GI50 (SF-268 CNS): 24.5 µM | TGI (SF-268 CNS): 87.8 µM | GI50 (MDA-MB-435): 15.3 µM | TGI (MDA-MB-435): 30.8 µM | GI50 (DU-145 prostate): 17.6 µM | TGI (DU-145 prostate): 32.1 µM | GI50 (OVCAR-5 ovarian): 9.17 µM | TGI (OVCAR-5 ovarian): 21.4 µM | GI50 (MALME-3M melanoma): 2.14 µM | TGI (MALME-3M melanoma): 8.38 µM | GI50 (RPMI-8226 leukemia): 0.907 µM | TGI (RPMI-8226 leukemia): 2.43 µM | GI50 (SNB-19 CNS): 18.9 µM | TGI (SNB-19 CNS): 34.5 µM | GI50 (CAKI-1 renal): 2.42 µM | TGI (CAKI-1 renal): 8.13 µM | GI50 (SK-MEL-2 melanoma): 22.8 µM | TGI (SK-MEL-2 melanoma): 55.7 µM | GI50 (A498 renal): > 100 µM | TGI (A498 renal): > 100 µM | GI50 (SN12C renal): 12.8 µM | TGI (SN12C renal): 25.4 µM | GI50 (COLO 205 colon): 7.5 µM | TGI (COLO 205 colon): 41.1 µM | GI50 (T-47D breast): 21.7 µM | TGI (T-47D breast): > 100 µM | GI50 (A549 NSCLC): 19 µM | TGI (A549 NSCLC): 35.7 µM | GI50 (MOLT-4 leukemia): 2.07 µM | TGI (MOLT-4 leukemia): 4.62 µM | GI50 (PC-3 prostate): 16.8 µM | TGI (PC-3 prostate): 30.9 µM | GI50 (SR leukemia): 1.74 µM | TGI (SR leukemia): 3.58 µM | GI50 (HCT-15 colon): 4.9 µM | TGI (HCT-15 colon): 19.8 µM

Reference: PubChem BioAssay (NCI)
